Test results taken from PMC9610617, “Anti-HIV Ermiasolides from Croton megalocarpus” (Molecules, 2022).

Test system: HIV-1IIIB
Assay: Anti-HIV activity: inhibition of HIV-induced cytopathic effect in infected MT-4 cells (MTT)
Type: cell-based, Human immunodeficiency virus type 1
Settings: ratio CC50 (MT-4) / IC50 (HIV-1IIIB)
Description: Human immunodeficiency virus type 1 (HIV-1IIIB) strain was obtained from the NIH HIV Reagent Program, Division of AIDS, NIAID, NIH. Dr. Robert Gallo donated human immunodeficiency virus-1 IIIB (ARP-398). HIV-1IIIB is highly capable of replicating in human T cell lines and appears to be well adapted for in vitro culture in T cells. The frozen HIV-1IIIB vials were thawed by immersion in room temperature water, and the vial was swirled until viruses were thawed. Then, 400 µL of the virus was transferred to 75 cm^2 tissue culture flasks (T75) containing 10 mL of 1 × 10^5 pelleted MT4 cells/mL, vortexed and incubated at 37 °C for 1 hr for virus adsorption. After 1 hr, 20 mL of RPMI-1640 was added gently and mixed with vortexing. […] The pelleted cells were then washed and resuspended in 30 mL RPMI 1640 with L-glutamine and 20% fetal bovine serum in a T75 flask, incubated at 37 °C and monitored for the development of cytopathic effects (CPEs).
The virus infectivity test was performed to determine the infectious titer of the virus, which can cause cytopathic effects (CPE) in tissue culture over a reasonable period of 3 to 10 days while cells in culture remain viable. In addition, this procedure was performed to quantify the amount of virus required to produce a cytopathic effect in 50% of cell culture replicates (TCID50). […] The TCID50 was then calculated as described by. […]

C[C@H](Cn1cnc2c(N)ncnc21)OCP(=O)(O)O [TDF, tenofovir]
SI, selective index: 176.5
